Test system: TCR-ζ
Experiment: Cell-free association of TCR-ζ with the actin cytoskeleton (detergent soluble lysate, newly polymerized pellet)
Type: biochemical, murine
Conditions: 1 mM ATP and above
Protocol: Freshly isolated murine thymocytes or lymph node T cells, or CD25/ζ-expressing T cell hybridomas, were washed 3 times in BSS and incubated in the presence or absence of cytochalasin D for 1.5 hrs at 4° C., solubilized with 0.5% NP-40 in a Tris buffered saline solution (TBS; 150 mM NaCl, 10 mM Tris, pH 7.3) containing protease and phosphatase inhibitors (0.2 mM VO3, 10 mM NaF, 1 mM PMSF, and 1 mg/ml each of Aprotinin, Leupeptin, and α-l-antitrypsin) and centrifuged at 10,000 rpm for 10 min to pellet the insoluble material. […] To increase actin polymerization, the Mg^2+ concentration was increased to 2 mM. […] Immunoprecipitation of the detergent soluble fraction with anti-TCR-ζ antibody was then performed as described in Example 4. The pellet and the anti-TCR-ζ immunoprecipitate were resolved by SDS-PAGE gel electrophoresis and immunoblotted with anti-TCR-ζ antibody.

Structure (SMILES): Nc1ncnc2c1ncn2[C@@H]1O[C@H](COP(=O)(O)OP(=O)(O)OP(=O)(O)O)[C@@H](O)[C@H]1O [ATP]
- Association of TCR-ζ with the lysis pellet: optimal
